## OPERA 2.9 data: vapor pressure values

Data: OPERA 2.9 data sets, kmansouri/OPERA on GitHub.

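These are experimental values that the OPERA curators gathered from public databases to train and test their QSAR models. A listed value is a point estimate from one report or more. Conditions of the individual experiments are not part of the data. The measured form (salt, isomer or mixture) is not always the one drawn. Some entries may be limits or estimates that an upstream database listed as plain numbers.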

Vapor pressures (log10 mmHg) refer to near room temperature, 15 to 30 °C; higher is more volatile. "via" names the databases from which the curators took the value.

CC(N)(CO)CO is reported with log VP -3.763 (log10 mmHg) (via eChemPortal). Listed for CCCCCCCCCOC(C)=O: log VP -1.474 (log10 mmHg) (via eChemPortal). For C=C(Cl)C(=O)[O-].[Na+] the data give log VP -8.718 (log10 mmHg) (via eChemPortal). The entry for Cc1ccc(C(C)(C)C)cc1 lists log VP -0.155 (log10 mmHg) (via PubChem, eChemPortal). For C=CCSSCCC the data give log VP -0.426 (log10 mmHg) (via PubChem). CC(C)N(CCN)C(C)C has log VP -0.029 (log10 mmHg) (via eChemPortal).

For Clc1ccccc1-c1c(Cl)c(Cl)c(Cl)c(Cl)c1Cl the data give log VP -4.595 (log10 mmHg) (via OCHEM). ClC1=C(Cl)C2(Cl)C(Cl)=C(Cl)[C@@H]3C[C@H]1C2C3Cl (stereo partly drawn) is reported with log VP -4.699 (log10 mmHg) (via OCHEM). Clc1cc(Cl)cc(-c2ccc(Cl)c(Cl)c2)c1 has log VP -4.804 (log10 mmHg) (via OCHEM). CC1OC1C1CCC2(C)OC2C1 (stereo unspecified) is reported with log VP -1.699 (log10 mmHg) (via PubChem). The entry for CC(=O)c1cccc(N)c1 lists log VP -2.005 (log10 mmHg) (via eChemPortal). CC1(C)CC(N)CC(C)(C)N1 has log VP -0.581 (log10 mmHg) (via eChemPortal).

For CCc1c(C(=O)O)c(=O)cnn1-c1ccc(Cl)cc1 the data give log VP -7.062 (log10 mmHg) (via OCHEM, PubChem). CC(C)C(=O)OCC(C)(C)C(OC(=O)C(C)C)C(C)C (stereo unspecified) is reported with log VP -2.01 (log10 mmHg) (via PubChem, eChemPortal). The entry for O=Cc1ccc(Cl)cc1 lists log VP -0.171 (log10 mmHg) (via eChemPortal). The entry for Cc1ccccc1S(N)(=O)=O lists log VP -6.305 (log10 mmHg) (via eChemPortal). Listed for NCCCC(O)(P(=O)(O)O)P(=O)(O)O.O: log VP -8.134 (log10 mmHg) (via eChemPortal). Listed for C=C(C(=O)OCC)C(=O)OCC(=O)OCC: log VP -1.072 (log10 mmHg) (via eChemPortal).

The entry for NCC1CCOC1 (stereo unspecified) lists log VP -0.042 (log10 mmHg) (via eChemPortal). Listed for CC1CCOC1 (stereo unspecified): log VP 1.807 (log10 mmHg) (via eChemPortal). The entry for OCCCNCCO lists log VP -3.694 (log10 mmHg) (via eChemPortal). CCOC(=O)CC(NC1CCC(CC2CCC(NC(CC(=O)OCC)C(=O)OCC)C(C)C2)CC1C)C(=O)OCC (stereo unspecified) has log VP -4.862 (log10 mmHg) (via eChemPortal). For C=CCO/N=C(\CCC)C1=C(O)CC(C)(C)C(C(=O)OC)C1=O (stereo partly drawn) the data give log VP -6.001 (log10 mmHg) (via OCHEM). Listed for Clc1cc(Cl)c(Cl)c(-c2ccc(Cl)c(Cl)c2Cl)c1: log VP -5.504 (log10 mmHg) (via OCHEM).

COc1ccc(NCCO)cc1N.O=S(=O)(O)O has log VP -8.664 (log10 mmHg) (via eChemPortal). The entry for CCOC(=O)C1C(C)=CC(=O)CC1(C)C (stereo unspecified) lists log VP -2.824 (log10 mmHg) (via eChemPortal). Listed for CCCCC(CC)COC(=O)COc1ccc(Cl)cc1C (stereo unspecified): log VP -4.694 (log10 mmHg) (via eChemPortal). For CO[Si](C)(C)CCCCl the data give log VP -0.011 (log10 mmHg) (via eChemPortal). Listed for Clc1cccc(-c2c(Cl)cc(Cl)c(Cl)c2Cl)c1: log VP -4.325 (log10 mmHg) (via OCHEM). The entry for OB(O)c1cccc(F)c1 lists log VP -8.259 (log10 mmHg) (via eChemPortal).

CC(=O)CCCC(C)CCC=C(C)C (stereo unspecified) has log VP -2.347 (log10 mmHg) (via eChemPortal). CCCCCCCCCC#N is reported with log VP -1.57 (log10 mmHg) (via eChemPortal). For O=COCCOC=O the data give log VP 0.111 (log10 mmHg) (via eChemPortal). Listed for O=C([O-])[C@H](O)[C@@H](O)C(=O)[O-].[Na+].[Na+]: log VP -8.648 (log10 mmHg) (via eChemPortal). CCOC(C)N1CC(C)OC1=O (stereo unspecified) is reported with log VP -2.058 (log10 mmHg) (via eChemPortal). The entry for NC1CCCc2ccccc21 (stereo unspecified) lists log VP -1.663 (log10 mmHg) (via eChemPortal).

The entry for Clc1cc(Cl)c(Cl)c(-c2ccccc2)c1 lists log VP -3.524 (log10 mmHg) (via OCHEM). For NC(=O)c1c(Cl)cccc1Cl the data give log VP -6.824 (log10 mmHg) (via OCHEM). Listed for c1cn[nH]c1: log VP -0.718 (log10 mmHg) (via eChemPortal). C[SiH](C)Cl has log VP 2.64 (log10 mmHg) (via eChemPortal). The entry for N#Cc1ccccc1C#N lists log VP -1.474 (log10 mmHg) (via PubChem). CCc1cc(Cc2cc(CC)cc(C(C)(C)C)c2O)c(O)c(C(C)(C)C)c1 is reported with log VP -6.104 (log10 mmHg) (via eChemPortal).

CCOC=C1N=C(c2ccccc2)OC1=O has log VP -5.194 (log10 mmHg) (via OCHEM). CCCCCCCCCCCCCCCCOC(C)=O is reported with log VP -4.444 (log10 mmHg) (via eChemPortal). The entry for CC=CCBr lists log VP 1.905 (log10 mmHg) (via OCHEM).

The last 6 entries again:

compound	log VP (log10 mmHg)	via
C[SiH](C)Cl	2.64	eChemPortal
N#Cc1ccccc1C#N	-1.474	PubChem
CCc1cc(Cc2cc(CC)cc(C(C)(C)C)c2O)c(O)c(C(C)(C)C)c1	-6.104	eChemPortal
CCOC=C1N=C(c2ccccc2)OC1=O	-5.194	OCHEM
CCCCCCCCCCCCCCCCOC(C)=O	-4.444	eChemPortal
CC=CCBr	1.905	OCHEM